Results published in patent US20140100156A1 (SANOFI, priority 2012, published 2014).
Read-outs that look alike come from different tables or passages of the source.

The chains behind the UniProt entries cited, without tags or fusion partners. Residues count along the entry.
UniProt P43220, 24-463: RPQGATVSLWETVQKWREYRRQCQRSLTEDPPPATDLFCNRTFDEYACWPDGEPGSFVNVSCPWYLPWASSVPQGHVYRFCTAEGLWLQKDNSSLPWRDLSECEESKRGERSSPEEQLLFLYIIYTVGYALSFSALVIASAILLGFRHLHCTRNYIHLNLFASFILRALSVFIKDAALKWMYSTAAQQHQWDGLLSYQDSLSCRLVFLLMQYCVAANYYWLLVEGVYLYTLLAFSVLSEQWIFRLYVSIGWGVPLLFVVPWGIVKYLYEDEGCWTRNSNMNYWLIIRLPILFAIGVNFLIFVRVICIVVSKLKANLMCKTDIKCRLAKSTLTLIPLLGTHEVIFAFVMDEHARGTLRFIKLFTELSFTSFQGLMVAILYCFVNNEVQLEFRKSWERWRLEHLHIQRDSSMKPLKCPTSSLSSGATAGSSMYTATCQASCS
UniProt P47871, 26-477: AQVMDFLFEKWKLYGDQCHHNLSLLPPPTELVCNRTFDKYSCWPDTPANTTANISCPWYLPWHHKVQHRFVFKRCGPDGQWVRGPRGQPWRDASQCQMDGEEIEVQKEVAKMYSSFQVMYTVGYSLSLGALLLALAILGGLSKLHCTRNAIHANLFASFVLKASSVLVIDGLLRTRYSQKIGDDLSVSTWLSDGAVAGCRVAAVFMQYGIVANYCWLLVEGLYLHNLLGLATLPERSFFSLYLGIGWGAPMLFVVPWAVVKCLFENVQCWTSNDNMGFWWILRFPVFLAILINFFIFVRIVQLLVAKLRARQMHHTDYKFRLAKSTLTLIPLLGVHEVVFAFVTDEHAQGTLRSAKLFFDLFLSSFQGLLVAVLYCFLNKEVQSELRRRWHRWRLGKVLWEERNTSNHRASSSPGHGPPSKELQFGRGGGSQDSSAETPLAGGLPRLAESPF

Legend:
human GLP-1 receptor = biological target: T1, human GLP-1 receptor (Homo sapiens, UniProt P43220); assay: cAMP response (HTRF) of HEK-293 cells stably expressing human GLP-1 receptor; format: cell-based; conditions: Table 5, cAMP, HEK-293
T1 construct: expressed in transfected cells; host or cells: HEK-293

human glucagon receptor = biological target: T2, human glucagon receptor (Homo sapiens, UniProt P47871); assay: cAMP response (HTRF) of HEK-293 cells stably expressing human glucagon receptor; format: cell-based; conditions: Table 5, cAMP, HEK-293
T2 construct: expressed in transfected cells; host or cells: HEK-293

CCCCCCCCCCCCCCCC(=O)NCCCC(=O)NCCCC[C@H](NC(=O)[C@H](CCC(N)=O)NC(=O)[C@H](CCCCN)NC(=O)[C@H](CO)NC(=O)[C@H](CC(C)C)NC(=O)[C@H](CC(=O)O)NC(=O)[C@H](CO)NC(=O)[C@@H](NC(=O)[C@H](Cc1ccccc1)NC(=O)[C@@H](NC(=O)CNC(=O)[C@H](CCC(N)=O)NC(=O)[C@@H](CO)NC(=O)[C@@H](N)Cc1c[nH]cn1)[C@@H](C)O)[C@@H](C)O)C(=O)N[C@@H](CCC(=O)O)C(=O)N[C@@H](CO)C(=O)N[C@@H](CCCNC(=N)N)C(=O)N[C@@H](C)C(=O)N[C@@H](C)C(=O)N[C@@H](CCC(N)=O)C(=O)N[C@@H](CC(=O)O)C(=O)N[C@@H](Cc1ccccc1)C(=O)N[C@H](C(=O)N[C@@H](CCC(=O)O)C(=O)N[C@@H](Cc1c[nH]c2ccccc12)C(=O)N[C@@H](CC(C)C)C(=O)N[C@@H](CCCCN)C(=O)N[C@@H](C)C(=O)NCC(=O)NCC(=O)N1CCC[C@H]1C(=O)N[C@@H](CO)C(=O)N[C@@H](CO)C(=O)NCC(=O)N[C@@H](C)C(=O)N1CCC[C@H]1C(=O)N1CCC[C@H]1C(=O)N1CCC[C@H]1C(=O)N[C@@H](CO)C(N)=O)[C@@H](C)CC [compound 50]
EC50 (human GLP-1 receptor; read-out: EC50 hGLP-1R): 3.3 pM
EC50 (human glucagon receptor; read-out: EC50 hGlucagon-R): 11.1 pM

CCCCCCCCCCCCCCCCCC(=O)N[C@@H](CCC(=O)NCCCC[C@H](NC(=O)[C@H](CCC(N)=O)NC(=O)[C@H](CCCCN)NC(=O)[C@H](CO)NC(=O)[C@H](CC(C)C)NC(=O)[C@H](CC(=O)O)NC(=O)[C@H](CO)NC(=O)[C@@H](NC(=O)[C@H](Cc1ccccc1)NC(=O)[C@@H](NC(=O)CNC(=O)[C@H](CCC(N)=O)NC(=O)[C@@H](CO)NC(=O)[C@@H](N)Cc1c[nH]cn1)[C@@H](C)O)[C@@H](C)O)C(=O)N[C@@H](CCC(=O)O)C(=O)N[C@@H](CO)C(=O)N[C@@H](CCCNC(=N)N)C(=O)N[C@@H](C)C(=O)N[C@@H](C)C(=O)N[C@@H](CCC(N)=O)C(=O)N[C@@H](CC(=O)O)C(=O)N[C@@H](Cc1ccccc1)C(=O)N[C@H](C(=O)N[C@@H](CCC(=O)O)C(=O)N[C@@H](Cc1c[nH]c2ccccc12)C(=O)N[C@@H](CC(C)C)C(=O)N[C@@H](CCCCN)C(=O)N[C@@H](C)C(=O)NCC(=O)NCC(=O)N1CCC[C@H]1C(=O)N[C@@H](CO)C(=O)N[C@@H](CO)C(=O)NCC(=O)N[C@@H](C)C(=O)N1CCC[C@H]1C(=O)N1CCC[C@H]1C(=O)N1CCC[C@H]1C(=O)N[C@@H](CO)C(N)=O)[C@@H](C)CC)C(=O)O [compound 51]
EC50 (human GLP-1 receptor; read-out: EC50 hGLP-1R): 2.7 pM
EC50 (human glucagon receptor; read-out: EC50 hGlucagon-R): 3 pM

CCCCCCCCCCCCCCCCCC(=O)N[C@@H](CCC(=O)N[C@@H](CCC(=O)NCCCC[C@H](NC(=O)[C@H](CCC(N)=O)NC(=O)[C@H](CCCCN)NC(=O)[C@H](CO)NC(=O)[C@H](CC(C)C)NC(=O)[C@H](CC(=O)O)NC(=O)[C@H](CO)NC(=O)[C@@H](NC(=O)[C@H](Cc1ccccc1)NC(=O)[C@@H](NC(=O)CNC(=O)[C@H](CCC(N)=O)NC(=O)[C@@H](CO)NC(=O)[C@@H](N)Cc1c[nH]cn1)[C@@H](C)O)[C@@H](C)O)C(=O)N[C@@H](CCC(=O)O)C(=O)N[C@@H](CO)C(=O)N[C@@H](CCCNC(=N)N)C(=O)N[C@@H](C)C(=O)N[C@@H](C)C(=O)N[C@@H](CCC(N)=O)C(=O)N[C@@H](CC(=O)O)C(=O)N[C@@H](Cc1ccccc1)C(=O)N[C@H](C(=O)N[C@@H](CCC(=O)O)C(=O)N[C@@H](Cc1c[nH]c2ccccc12)C(=O)N[C@@H](CC(C)C)C(=O)N[C@@H](CCCCN)C(=O)N[C@@H](C)C(=O)NCC(=O)NCC(=O)N1CCC[C@H]1C(=O)N[C@@H](CO)C(=O)N[C@@H](CO)C(=O)NCC(=O)N[C@@H](C)C(=O)N1CCC[C@H]1C(=O)N1CCC[C@H]1C(=O)N1CCC[C@H]1C(=O)N[C@@H](CO)C(N)=O)[C@@H](C)CC)C(=O)O)C(=O)O [compound 52]
EC50 (human GLP-1 receptor; read-out: EC50 hGLP-1R): 1.9 pM
EC50 (human glucagon receptor; read-out: EC50 hGlucagon-R): 2 pM

CCCCCCCCCCCCCCCCCC(=O)NCCCC(=O)NCCCC[C@H](NC(=O)[C@H](CCC(N)=O)NC(=O)[C@H](CCCCN)NC(=O)[C@H](CO)NC(=O)[C@H](CC(C)C)NC(=O)[C@H](CC(=O)O)NC(=O)[C@H](CO)NC(=O)[C@@H](NC(=O)[C@H](Cc1ccccc1)NC(=O)[C@@H](NC(=O)CNC(=O)[C@H](CCC(N)=O)NC(=O)[C@@H](CO)NC(=O)[C@@H](N)Cc1c[nH]cn1)[C@@H](C)O)[C@@H](C)O)C(=O)N[C@@H](CCC(=O)O)C(=O)N[C@@H](CO)C(=O)N[C@@H](CCCNC(=N)N)C(=O)N[C@@H](C)C(=O)N[C@@H](C)C(=O)N[C@@H](CCC(N)=O)C(=O)N[C@@H](CC(=O)O)C(=O)N[C@@H](Cc1ccccc1)C(=O)N[C@H](C(=O)N[C@@H](CCC(=O)O)C(=O)N[C@@H](Cc1c[nH]c2ccccc12)C(=O)N[C@@H](CC(C)C)C(=O)N[C@@H](CCCCN)C(=O)N[C@@H](C)C(=O)NCC(=O)NCC(=O)N1CCC[C@H]1C(=O)N[C@@H](CO)C(=O)N[C@@H](CO)C(=O)NCC(=O)N[C@@H](C)C(=O)N1CCC[C@H]1C(=O)N1CCC[C@H]1C(=O)N1CCC[C@H]1C(=O)N[C@@H](CO)C(N)=O)[C@@H](C)CC [compound 53]
EC50 (human GLP-1 receptor; read-out: EC50 hGLP-1R): 5.4 pM
EC50 (human glucagon receptor; read-out: EC50 hGlucagon-R): 6.5 pM

CCCCCCCCCCCCCCCCCC(=O)NCCC(=O)NCCC(=O)NCCCC[C@H](NC(=O)[C@H](CCC(N)=O)NC(=O)[C@H](CCCCN)NC(=O)[C@H](CO)NC(=O)[C@H](CC(C)C)NC(=O)[C@H](CC(=O)O)NC(=O)[C@H](CO)NC(=O)[C@@H](NC(=O)[C@H](Cc1ccccc1)NC(=O)[C@@H](NC(=O)CNC(=O)[C@H](CCC(N)=O)NC(=O)[C@@H](CO)NC(=O)[C@@H](N)Cc1c[nH]cn1)[C@@H](C)O)[C@@H](C)O)C(=O)N[C@@H](CCC(=O)O)C(=O)N[C@@H](CO)C(=O)N[C@@H](CCCNC(=N)N)C(=O)N[C@@H](C)C(=O)N[C@@H](C)C(=O)N[C@@H](CCC(N)=O)C(=O)N[C@@H](CC(=O)O)C(=O)N[C@@H](Cc1ccccc1)C(=O)N[C@H](C(=O)N[C@@H](CCC(=O)O)C(=O)N[C@@H](Cc1c[nH]c2ccccc12)C(=O)N[C@@H](CC(C)C)C(=O)N[C@@H](CCCCN)C(=O)N[C@@H](C)C(=O)NCC(=O)NCC(=O)N1CCC[C@H]1C(=O)N[C@@H](CO)C(=O)N[C@@H](CO)C(=O)NCC(=O)N[C@@H](C)C(=O)N1CCC[C@H]1C(=O)N1CCC[C@H]1C(=O)N1CCC[C@H]1C(=O)N[C@@H](CO)C(N)=O)[C@@H](C)CC [compound 54]
EC50 (human GLP-1 receptor; read-out: EC50 hGLP-1R): 4.8 pM
EC50 (human glucagon receptor; read-out: EC50 hGlucagon-R): 4 pM

CCCCCCCC/C=C\CCCCCCCC(=O)N[C@@H](CCC(=O)NCCCC[C@H](NC(=O)[C@H](CCC(N)=O)NC(=O)[C@H](CCCCN)NC(=O)[C@H](CO)NC(=O)[C@H](CC(C)C)NC(=O)[C@H](CC(=O)O)NC(=O)[C@H](CO)NC(=O)[C@@H](NC(=O)[C@H](Cc1ccccc1)NC(=O)[C@@H](NC(=O)CNC(=O)[C@H](CCC(N)=O)NC(=O)[C@@H](CO)NC(=O)[C@@H](N)Cc1c[nH]cn1)[C@@H](C)O)[C@@H](C)O)C(=O)N[C@@H](CCC(=O)O)C(=O)N[C@@H](CO)C(=O)N[C@@H](CCCNC(=N)N)C(=O)N[C@@H](C)C(=O)N[C@@H](C)C(=O)N[C@@H](CCC(N)=O)C(=O)N[C@@H](CC(=O)O)C(=O)N[C@@H](Cc1ccccc1)C(=O)N[C@H](C(=O)N[C@@H](CCC(=O)O)C(=O)N[C@@H](Cc1c[nH]c2ccccc12)C(=O)N[C@@H](CC(C)C)C(=O)N[C@@H](CCCCN)C(=O)N[C@@H](C)C(=O)NCC(=O)NCC(=O)N1CCC[C@H]1C(=O)N[C@@H](CO)C(=O)N[C@@H](CO)C(=O)NCC(=O)N[C@@H](C)C(=O)N1CCC[C@H]1C(=O)N1CCC[C@H]1C(=O)N1CCC[C@H]1C(=O)N[C@@H](CO)C(N)=O)[C@@H](C)CC)C(=O)O [compound 55]
EC50 (human GLP-1 receptor; read-out: EC50 hGLP-1R): 5.4 pM
EC50 (human glucagon receptor; read-out: EC50 hGlucagon-R): 15.8 pM

CCCCCCCC/C=C\CCCCCCCC(=O)NCCCC(=O)NCCCC[C@H](NC(=O)[C@H](CCC(N)=O)NC(=O)[C@H](CCCCN)NC(=O)[C@H](CO)NC(=O)[C@H](CC(C)C)NC(=O)[C@H](CC(=O)O)NC(=O)[C@H](CO)NC(=O)[C@@H](NC(=O)[C@H](Cc1ccccc1)NC(=O)[C@@H](NC(=O)CNC(=O)[C@H](CCC(N)=O)NC(=O)[C@@H](CO)NC(=O)[C@@H](N)Cc1c[nH]cn1)[C@@H](C)O)[C@@H](C)O)C(=O)N[C@@H](CCC(=O)O)C(=O)N[C@@H](CO)C(=O)N[C@@H](CCCNC(=N)N)C(=O)N[C@@H](C)C(=O)N[C@@H](C)C(=O)N[C@@H](CCC(N)=O)C(=O)N[C@@H](CC(=O)O)C(=O)N[C@@H](Cc1ccccc1)C(=O)N[C@H](C(=O)N[C@@H](CCC(=O)O)C(=O)N[C@@H](Cc1c[nH]c2ccccc12)C(=O)N[C@@H](CC(C)C)C(=O)N[C@@H](CCCCN)C(=O)N[C@@H](C)C(=O)NCC(=O)NCC(=O)N1CCC[C@H]1C(=O)N[C@@H](CO)C(=O)N[C@@H](CO)C(=O)NCC(=O)N[C@@H](C)C(=O)N1CCC[C@H]1C(=O)N1CCC[C@H]1C(=O)N1CCC[C@H]1C(=O)N[C@@H](CO)C(N)=O)[C@@H](C)CC [compound 56]
EC50 (human GLP-1 receptor; read-out: EC50 hGLP-1R): 4.5 pM
EC50 (human glucagon receptor; read-out: EC50 hGlucagon-R): 29.3 pM

CC[C@H](C)[C@H](NC(=O)[C@H](Cc1ccccc1)NC(=O)[C@H](CC(=O)O)NC(=O)[C@H](CCC(N)=O)NC(=O)[C@H](C)NC(=O)[C@H](C)NC(=O)[C@H](CCCNC(=N)N)NC(=O)[C@H](CO)NC(=O)[C@H](CCC(=O)O)NC(=O)[C@H](CCCCNC(=O)CC[C@H](NC(=O)CCC(=O)Oc1c(C)c(C)c2c(c1C)CC[C@@](C)(CCC[C@H](C)CCC[C@H](C)CCCC(C)C)O2)C(=O)O)NC(=O)[C@H](CCC(N)=O)NC(=O)[C@H](CCCCN)NC(=O)[C@H](CO)NC(=O)[C@H](CC(C)C)NC(=O)[C@H](CC(=O)O)NC(=O)[C@H](CO)NC(=O)[C@@H](NC(=O)[C@H](Cc1ccccc1)NC(=O)[C@@H](NC(=O)CNC(=O)[C@H](CCC(N)=O)NC(=O)[C@@H](CO)NC(=O)[C@@H](N)Cc1c[nH]cn1)[C@@H](C)O)[C@@H](C)O)C(=O)N[C@@H](CCC(=O)O)C(=O)N[C@@H](Cc1c[nH]c2ccccc12)C(=O)N[C@@H](CC(C)C)C(=O)N[C@@H](CCCCN)C(=O)N[C@@H](C)C(=O)NCC(=O)NCC(=O)N1CCC[C@H]1C(=O)N[C@@H](CO)C(=O)N[C@@H](CO)C(=O)NCC(=O)N[C@@H](C)C(=O)N1CCC[C@H]1C(=O)N1CCC[C@H]1C(=O)N1CCC[C@H]1C(=O)N[C@@H](CO)C(N)=O [compound 57]
EC50 (human GLP-1 receptor; EC50 hGLP-1R): 45 pM
EC50 (human glucagon receptor; EC50 hGlucagon-R): 8 pM
